Data taken from patent US20220348569A1 (priority 2021, published 2022).

The chains behind the UniProt entries cited, without tags or fusion partners.
UniProt P10632, whole entry: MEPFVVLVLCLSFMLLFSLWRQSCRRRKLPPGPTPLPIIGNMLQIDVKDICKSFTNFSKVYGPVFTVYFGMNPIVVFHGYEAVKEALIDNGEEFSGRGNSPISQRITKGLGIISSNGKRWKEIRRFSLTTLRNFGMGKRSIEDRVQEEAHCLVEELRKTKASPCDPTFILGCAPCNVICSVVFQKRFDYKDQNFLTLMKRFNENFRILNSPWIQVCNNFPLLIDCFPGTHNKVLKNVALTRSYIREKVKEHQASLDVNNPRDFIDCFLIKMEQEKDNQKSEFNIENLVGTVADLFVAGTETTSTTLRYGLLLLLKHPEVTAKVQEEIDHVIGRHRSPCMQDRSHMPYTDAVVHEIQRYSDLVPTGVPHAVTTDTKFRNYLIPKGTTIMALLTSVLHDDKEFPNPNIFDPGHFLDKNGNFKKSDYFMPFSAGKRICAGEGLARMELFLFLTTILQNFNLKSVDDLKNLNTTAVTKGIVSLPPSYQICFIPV

Biological target: CYP2C8 (Homo sapiens, UniProt P10632)
Conditions: 0.370 μM

O=C(O)c1cc(-c2ccc(/C=C3\SC(=S)N(CCc4ccccc4)C3=O)o2)ccc1Cl [Compound 1, (Z)-2-Chloro-5-(5-((4-oxo-3-phenethyl-2-thioxothiazolidin-5-ylidene)methyl)furan-2-yl)benzoic acid]
% of Control Enzyme Activity (n = 1): 87.8%
